Test results as given in publication PMC9860845, “Synthesis, DFT Studies, Molecular Docking and Biological Activity Evaluation of Thiazole-Sulfonamide Derivatives as Potent Alzheimer’s Inhibitors” (Molecules, 2023).

Assays:
[1] = target: acetylcholinesterase (AChE) (Homo sapiens, UniProt P22303); test: In vitro acetylcholinesterase inhibitory activity (Ellman method); format: biochemical; details: read-out: AchE IC50, pH 7.7, 37 °C, triplicate, ± SEM
[2] = target: butyrylcholinesterase (BuChE) (Homo sapiens, UniProt P06276); test: In vitro butyrylcholinesterase inhibitory activity (Ellman method); format: biochemical; details: read-out: BuChE IC50, pH 7.7, 37 °C, triplicate, ± SEM

Compound: O=[N+]([O-])c1cccc(-c2csc(NNS(=O)(=O)c3cc([N+](=O)[O-])ccc3[N+](=O)[O-])n2)c1
- IC50 [1]: 800 nM
- IC50 [2]: 1200 nM
